The text below walks through data of patent publication US10118930B2, “Piperidinylpyrazolopyrimidinones and their use” (BAYER PHARMA AKTIENGESELLSCHAFT, priority 2015, dated 2018).

Where a name gives a salt, the structure may show the parent alone.

This assay concerns clot lysis (fibrinolysis) in diluted human citrated plasma, tPA-induced. Nature of the assay: Plasma-based clot lysis assay (5%). Type of assay: biochemical. The settings on record: human citrated platelet-poor plasma 5%, fibrinogen 3 μM, CaCl2 10 mM, tPA 0.2 nM, 37° C., OD at 405 nm. Here is the method:
B-2. Plasma-based Clot Lysis Assay (5%)
The clot-lysis test system configures the kinetics of clot formation and degradation in vitro and allows quantifying modulation of the process by selected test compounds.
The test compounds were dissolved in 1% acetic acid and further complemented with an equal volume of DMSO. The resulting stock solutions were serially diluted in 0.5% acetic acid/50% DMSO. 1 μL aliquots of these solutions were placed into 384 well microplates (Greiner, black, transparent bottom), followed by 30 μL of diluted human citrated plasma (platelet-poor, final concentration: 5%; supplemented with fibrinogen, final concentration: 3 μM; dilution buffer: 20 mM HEPES, 150 mM NaCl, 0.01% Brij (pH 7)). The reactions were started by addition of 20 μL of CaCl2 (final concentration: 10 mM), and tPA (tissue plasminogen activator, final concentration: 0.2 nM) in dilution buffer, followed by an additional volume of 20 μL dilution buffer for improved mixing. The reactions were incubated at 37° C. […] IC50 values were determined by comparing the resulting time courses with the time course of a blank control reaction.
For `Cc1csc(-c2cnn3c(C4CCNCC4)cc(=O)[nH]c23)c1` [Example 66, 3-(4-Methyl-2-thienyl)-7-(piperidin-4-yl)pyrazolo[1,5-a]pyrimidin-5(4H)-one hydrochloride], the 50% inhibitory concentration (IC50) was 17 nM.

`COc1ccccc1-c1noc(-c2c(C)nn3c(C4CCNCC4)cc(=O)[nH]c23)n1` [Example 437, 3-[3-(2-methoxyphenyl)-1,2,4-oxadiazol-5-yl]-2-methyl-7-(piperidin-4-yl)pyrazolo[1,5-a]pyrimidin-5(4H)-one hydrochloride] displayed an IC50 of 10 nM.

As for `O=c1cc(C2CCNCC2)n2ncc(-c3nc(-c4ccc(F)cc4)no3)c2[nH]1` [Example 126, 3-[3-(4-Fluorophenyl)-1,2,4-oxadiazol-5-yl]-7-(piperidin-4-yl)pyrazolo[1,5-a]pyrimidin-5 (4H)-one hydrochloride], the IC50 came out at 47 nM. Take `Cc1sc(-c2ccccc2)nc1-c1cnn2c(C3CCNCC3)cc(=O)[nH]c12` [Example 450, 3-(5-methyl-2-phenyl-1,3-thiazol-4-yl)-7-(piperidin-4-yl)pyrazolo[1,5-a]pyrimidin-5 (4H)-one hydrochloride]: half-maximal inhibition (IC50) required 360 nM. `CC(C)OC(=O)c1cnn2c(C3CCNCC3)cc(=O)[nH]c12` [Example 315, Propan-2-yl 5-oxo-7-(piperidin-4-yl)-4,5-dihydropyrazolo[1,5-a]pyrimidine-3-carboxylate hydrochloride] gave a half-inhibitory concentration (IC50) of 36 nM. Turning to `CCC(C)(C)C(=O)c1cnn2c(C3CCNCC3)cc(=O)[nH]c12` [Example 377, 3-(2,2-dimethylbutanoyl)-7-(piperidin-4-yl)pyrazolo[1,5-a]pyrimidin-5(4H)-one hydrochloride], half-maximal inhibition (IC50) was put at 25 nM. Consider `Cc1ccccc1CN(C)C(=O)c1c(C)nn2c(C3CCNCC3)cc(=O)[nH]c12` [Example 433, N,2-dimethyl-N-(2-methyl-benzyl)-5-oxo-7-(piperidin-4-yl)-4,5-dihydro-pyrazolo[1,5-a] pyrimidine-3-carboxamide hydrochloride], for which the IC50 was 31 nM.

In turn, `Cc1nn2c(C3CCNCC3)cc(=O)[nH]c2c1C(=O)N1CCCc2ccccc21` [Example 404, 3-(3,4-dihydroquinolin-1(2H)-ylcarbonyl)-2-methyl-7-(piperidin-4-yl) pyrazolo[1,5-a] pyrimidin-5(4H)-one hydrochloride] displayed an IC50 of 30 nM.

`Cc1ccccc1-c1nnc(-c2cnn3c(C4CCNCC4)cc(=O)[nH]c23)o1` [Example 171, 3-[5-(2-methylphenyl)-1,3,4-oxadiazol-2-yl]-7-(piperidin-4-yl)pyrazolo[1,5-a]pyrimidin-5(4H)-one hydrochloride]: the IC50 came out at 35 nM. Regarding `CC(C)(C)c1ccc(-c2noc(-c3cnn4c(C5CCNCC5)cc(=O)[nH]c34)n2)cc1` [Example 196, 3-[3-(4-tert-butylphenyl)-1,2,4-oxadiazol-5-yl]-7-(piperidin-4-yl)pyrazolo[1,5-a]pyrimidin-5(4H)-one hydrochloride], it took 75 nM to reach half-maximal inhibition (IC50). `Cc1nn2c(C3CCNCC3)cc(=O)[nH]c2c1C(=O)OC1CCC1` [Example 364, Cyclobutyl 2-methyl-5-oxo-7-(piperidin-4-yl)-4,5-dihydropyrazolo[1,5-a]pyrimidine-3-carboxylate hydrochloride] displayed an IC50 of 11 nM. Molecule `CC(C)c1noc(-c2cnn3c(C4CCNCC4)cc(=O)[nH]c23)n1` [Example 33, 3-(3-Isopropyl-1,2,4-oxadiazol-5-yl)-7-(piperidin-4-yl)pyrazolo[1,5-a]pyrimidin-5 (4H)-one hydrochloride] came in with a half-inhibitory concentration (IC50) of 13 nM. On to `Cc1ccc(-c2noc(-c3cnn4c(C5CCNCC5)cc(=O)[nH]c34)n2)c(F)c1` [Example 131, 3-[3-(2-Fluoro-4-methylphenyl)-1,2,4-oxadiazol-5-yl]-7-(piperidin-4-yl)pyrazolo[1,5-a]pyrimidin-5(4H)-one hydrochloride], for which the IC50 was determined as 63 nM. In the case of `COc1ccc(Cc2nnc(-c3cnn4c(C5CCNCC5)cc(=O)[nH]c34)o2)cc1` [Example 176, 3-[5-(4-methoxybenzyl)-1,3,4-oxadiazol-2-yl]-7-(piperidin-4-yl)pyrazolo[1,5-a]pyrimidin-5(4H)-one hydrochloride], half-maximal inhibition (IC50) required 38 nM.

Turning to `C[C@H]1C[C@H]1c1nc(-c2cnn3c(C4CCNCC4)cc(=O)[nH]c23)no1` (relative stereo) [Example 382, Rel-3-{5-[(1R,2S)-2-methylcyclopropyl]-1,2,4-oxadiazol-3-yl}-7-(piperidin-4-yl)pyrazolo[1,5-a]pyrimidin-5(4H)-one hydrochloride], the half-inhibitory concentration (IC50) was found to be 28 nM.

Take `CC(C)(C)c1nc(-c2cnn3c(C4CCNCC4)cc(=O)[nH]c23)no1` [Example 257, 3-(5-tert-butyl-1,2,4-oxadiazol-3-yl)-7-(piperidin-4-yl)pyrazolo[1,5-a]pyrimidin-5(4H)-one hydrochloride]: the half-inhibitory concentration (IC50) was 34 nM.

In turn, `O=c1cc(C2CCNCC2)n2ncc(-c3ccccc3)c2[nH]1` [Example 1, 3-Phenyl-7-(piperidin-4-yl)pyrazolo[1,5-a]pyrimidin-5(4H)-one hydrochloride] showed a half-maximal inhibitory concentration (IC50) of 38 nM. `O=c1cc(C2CCNCC2)n2ncc(-c3ccns3)c2[nH]1` [Example 373, 7-(piperidin-4-yl)-3-(1,2-thiazol-5-yl)pyrazolo[1,5-a]pyrimidin-5(4H)-one hydrochloride] came in with an IC50 of 11 nM.

The molecule `O=c1cc(C2CCNCC2)n2ncc(-c3nc(-c4cccc(C(F)(F)F)c4)no3)c2[nH]1` [Example 111, 7-(Piperidin-4-yl)-3-{3-[3-(trifluoromethyl)phenyl]-1,2,4-oxadiazol-5-yl}pyrazolo[1,5-a]pyrimidin-5(4H)-one hydrochloride] returned an IC50 of 32 nM. In turn, `O=c1cc(C2CCNCC2)n2ncc(-c3nc(-c4ccncc4)no3)c2[nH]1` [Example 207, 7-(piperidin-4-yl)-3-[3-(pyridin-4-yl)-1,2,4-oxadiazol-5-yl]pyrazolo[1,5-a]pyrimidin-5(4H)-one hydrochloride] returned an IC50 of 93 nM. In the case of `CCCOC(=O)c1c(SC)nn2c(C3CCNCC3)cc(=O)[nH]c12` [Example 470, Propyl 2-(methylsulfanyl)-5-oxo-7-(piperidin-4-yl)-4,5-dihydropyrazolo[1,5-a]pyrimidine-3-carboxylate hydrochloride], 25 nM corresponded to half-maximal inhibition (IC50). With `COc1ccccc1-c1cnn2c(C3CCNCC3)cc(=O)[nH]c12` [Example 67, 3-(2-Methoxyphenyl)-7-(piperidin-4-yl)pyrazolo[1,5-a]pyrimidin-5(4H)-one hydrochloride], the IC50 turned out to be 97 nM. For `CC(C)(c1nc(-c2cnn3c(C4CCNCC4)cc(=O)[nH]c23)no1)C(F)(F)F` [Example 391, 7-(piperidin-4-yl)-3-(5-(1,1,1-trifluoro-2-methylpropan-2-yl)-1,2,4-oxadiazol-3-yl)pyrazolo[1,5-a]pyrimidin-5(4H)-one hydrochloride], the IC50 worked out at 30 nM. Molecule `Cc1ccccc1-c1nc(-c2cnn3c(C4CCNCC4)cc(=O)[nH]c23)no1` [Example 225, 3-[5-(2-methylphenyl)-1,2,4-oxadiazol-3-yl]-7-(piperidin-4-yl)pyrazolo[1,5-a]pyrimidin-5(4H)-one hydrochloride] yielded an IC50 of 34 nM.

Molecule `Cc1nn2c(C3CCNCC3)cc(=O)[nH]c2c1-c1nc(C(C)C)no1` [Example 301, 2-methyl-7-(piperidin-4-yl)-3-[3-(propan-2-yl)-1,2,4-oxadiazol-5-yl]pyrazolo[1,5-a]pyrimidin-5(4H)-one hydrochloride] yielded an IC50 of 30 nM. Consider `O=c1cc(C2CCNCC2)n2ncc(-c3nnc(Cc4cccnc4)o3)c2[nH]1` [Example 331, 7-(piperidin-4-yl)-3-[5-(pyridin-3-ylmethyl)-1,3,4-oxadiazol-2-yl]pyrazolo[1,5-a]pyrimidin-5 (4H)-one hydrochloride], for which the IC50 turned out to be 24 nM.

Consider `Cc1nn2c(C3CCNCC3)cc(=O)[nH]c2c1C(=O)OCC(F)(F)F` [Example 367, 2,2,2-trifluoroethyl 2-methyl-5-oxo-7-(piperidin-4-yl)-4,5-dihydropyrazolo[1,5-a]pyrimidine-3-carboxylate hydrochloride], for which it took 25 nM to reach half-maximal inhibition (IC50). Regarding `CN(C)c1ccc(-c2noc(-c3cnn4c(C5CCNCC5)cc(=O)[nH]c34)n2)cc1F` [Example 197, 3-{3-[4-(dimethylamino)-3-fluorophenyl]-1,2,4-oxadiazol-5-yl}-7-(piperidin-4-yl)pyrazolo[1,5-a]pyrimidin-5(4H)-one hydrochloride], the IC50 is 35 nM.

As for `O=c1cc(C2CCNCC2)n2ncc(-c3nc(-c4ncc(F)cc4F)no3)c2[nH]1` [Example 202, 3-[3-(3,5-difluoropyridin-2-yl)-1,2,4-oxadiazol-5-yl]-7-(piperidin-4-yl)pyrazolo[1,5-a]pyrimidin-5(4H)-one hydrochloride], it took 37 nM to reach half-maximal inhibition (IC50).

The molecule `Cc1ccc(-c2cnn3c(C4CCNCC4)cc(=O)[nH]c23)cc1` [Example 45, 3-(4-Methylphenyl)-7-(piperidin-4-yl)pyrazolo[1,5-a]pyrimidin-5(4H)-one hydrochloride] showed an IC50 of 23 nM. In turn, `Cc1sc(-c2cnn3c(C4CCNCC4)cc(=O)[nH]c23)nc1C(F)(F)F` [Example 334, 3-[5-methyl-4-(trifluoromethyl)-1,3-thiazol-2-yl]-7-(piperidin-4-yl)pyrazolo[1,5-a]pyrimidin-5(4H)-one hydrochloride] registered an IC50 of 30 nM.

A word on the IC50: it is the point on the concentration scale where inhibition reaches its midpoint. A higher IC50 goes with lower potency.
